According to patent US6841172B1, “Method for iron delivery to a patient by transfer from dialysate” (HemoCleanse, Inc., priority 1996, dated 2005):

Columns and labels:
[1] = Solubility of ferrous gluconate in dialysate concentrate; format: physicochemical
Experimental: The high concentration of solutes in a dialysate concentrate results in a reduced amount of water which is available to dissolve additional solutes. Therefore, the most preferred iron complexes used in accordance with the invention are highly soluble. […] In contravention of this belief, the present inventor has discovered, for example, that ferrous gluconate is stably soluble in such a concentrate at levels over 8 grams per 100 ml (dl), thus providing an iron concentration of about 1 gram per 100 ml. As is readily ascertainable by one skilled in the art, this would result in an iron concentration in dialysate of approximately 30 mg (30,000 μg) per 100 ml after a 35:1 dilution.

[2] = delivered intraperitoneally; cited from earlier work
[3] = after intravenous injection; cited from earlier work

For ferrous gluconate, which “iron concentration provided in the concentrate” value ([1]; at over 8 grams ferrous gluconate per 100 ml concentrate) is on record?
The value was “about 1 gram per 100 ml”.

And the “stably soluble level in dialysate concentrate” value ([1]; dialysate concentrate)?
The value was “over 8 grams per 100 ml”.

Which “fraction of iron bioavailable” value [2] does the source give for iron dextran here?
The value was “about half”.

What about the “fraction stored permanently in the body, not available for red cell production” value [2] of the same substance?
Its value is “about 50%”.

And the “fraction of iron bio-available for red cell production” value [3]?
Its value is “about half”.
